Reference: patent US9073916B2, “Prodrug forms of kinase inhibitors and their use in therapy” (AUCKLAND UNISERVICES LIMITED, priority 2009, dated 2015)

Assay: Murine toxicity (maximum tolerated dose)
Conditions: IP, A431 xenograft mice; tested form: bromide

Cn1c(C[N+](C)(C)C/C=C/C(=O)Nc2ccc3ncnc(Nc4cccc(Br)c4)c3c2)ccc1[N+](=O)[O-].[Br-] [Compound 19, (2E)-4-{[4-(3-bromoanilino)-6-quinazolinyl]amino}-N,N-dimethyl-N-[(1-methyl-5-nitro-1H-pyrrol-2-yl)methyl]-4-oxo-2-buten-1-ammonium bromide]
q4dx3 MTD: 75 μmol/kg/dose
